Data on one molecule can be found in ChEMBL document CHEMBL3525927, “Measurement of unbound drug exposure in brain: modeling of pH partitioning explains diverging results between the brain slice and brain homogenate methods” (Drug Metab Dispos, 2011).

One may read the pKa as the negative logarithm of the acid dissociation constant. Lower therefore signals a group that gives up its proton readily.

This data set is described as follows: physchem.

In turn, `COc1ccc2c3c1O[C@H]1C(=O)CC[C@@]4(O)[C@@H](C2)N(C)CC[C@]314` [OXYCODONE] yielded a pKa of 9.1.
